Our source for the EC50, IC50 and Ki values is patent publication US20050032873A1, “3-Amino chroman and 2-amino tetralin derivatives” (Wyeth, priority 2003, published 2005).

Amino acid sequences for entries named in this document (tags omitted).
UniProt P08908, whole entry: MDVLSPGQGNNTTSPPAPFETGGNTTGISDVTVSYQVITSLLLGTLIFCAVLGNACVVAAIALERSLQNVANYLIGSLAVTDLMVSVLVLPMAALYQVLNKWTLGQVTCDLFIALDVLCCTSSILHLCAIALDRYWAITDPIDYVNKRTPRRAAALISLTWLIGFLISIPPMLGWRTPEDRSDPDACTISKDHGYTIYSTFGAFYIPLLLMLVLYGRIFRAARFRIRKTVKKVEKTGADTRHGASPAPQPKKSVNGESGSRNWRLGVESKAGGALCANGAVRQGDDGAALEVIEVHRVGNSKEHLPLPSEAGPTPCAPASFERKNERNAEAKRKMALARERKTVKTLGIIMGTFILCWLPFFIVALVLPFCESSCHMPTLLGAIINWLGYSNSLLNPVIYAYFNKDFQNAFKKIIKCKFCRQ

Experiment [1] deals with T1, cloned human 5-HT1A receptors (Homo sapiens, UniProt P08908).
T1 construct: expressed in transfected cells
The experiment in a line: 35S-GTPγS binding assay, 5-HT1A function. The format is biochemical. Particulars: for EC50: agonist potency; for IC50: antagonist potency, reversal of 8-OH-DPAT. A general note: GTPγS is a poorly hydrolysed GTP analogue; its binding reports G protein activation.

Experiment [2] addresses T2, 5-HT1A receptor (Homo sapiens, UniProt P08908). The experiment in a line: cAMP accumulation assay, 5-HT1A function. The format is cell-based. Particulars: for IC50: cells marked IC50 (antagonist). Background: cAMP levels reflect the balance of adenylyl cyclase and phosphodiesterase activity.
Experiment [3] has as its target T2, 5-HT1A receptor. The experiment in a line: 5-HT1A receptor affinity: displacement of [3H] 8-OH-DPAT. More on the design: expressed in transfected cells. The format is binding. The conditions noted are these: CHO cells stably transfected with human 5-HT1A receptors.

The term EC50 denotes the concentration that produces a half-maximal response. By IC50 is commonly meant the concentration at which inhibition is half-maximal. For the compound `NC(=O)c1ccc(F)c2c1CC(N(CCCc1c[nH]c3ccc(F)cc13)CC1CC1)CO2` (single isomer, unassigned; (+)) [Compound 5b, (+)-3-{(cyclopropylmethyl)[3-(5-fluoro-1H-indol-3-yl)propyl]amino}-8-fluorochromane-5-carboxamide], in experiment [1], the EC50 was 35.6 nM and the IC50 is 31.9 nM. The same compound displayed an EC50 in experiment [2] (cells marked EC50 (agonist)) of 16.3 nM.

The Ki is the equilibrium dissociation constant of an inhibitor or competing ligand from its target. As to `NC(=O)c1ccc(F)c2c1CC(N(CCCc1c[nH]c3ccc(F)cc13)CC1CC1)CO2` (single isomer, unassigned; (-)) [Compound 5a, (−)-3-{(cyclopropylmethyl)[3-(5-fluoro-1H-indol-3-yl)propyl]amino}-8-fluorochromane-5-carboxamide], the IC50 is 44.1 nM in experiment [1] and 70.1 nM in experiment [2]. The compound also yielded a Ki in experiment [3] of 2.04 nM.

`NC(=O)c1ccc(F)c2c1CC(N(CCCc1c[nH]c3ccc(F)cc13)CC1CC1)CO2` (stereo not shown) [Compound 5, 3-{(cyclopropylmethyl)[3-(5-fluoro-1H-indol-3-yl)propyl]amino}-8-fluorochromane-5-carboxamide] gave an EC50 in experiment [1] of 24.5 nM. Further, the IC50 turned out to be 291 nM in experiment [1] and 65.5 nM in experiment [2]. In addition, the affinity in experiment [3], expressed as Ki, was 1.48 nM.
